Measured values taken from ChEMBL document CHEMBL3994586, “Treatment of estrogen-dependent diseases: Design, synthesis and profiling of a selective 17β-HSD1 inhibitor with sub-nanomolar IC50 for a proof-of-principle study” (Eur J Med Chem, 2017).

Target: T1, 17-beta-hydroxysteroid dehydrogenase type 2 (Homo sapiens, UniProt P37059)
T1 sequence (P37059 whole entry): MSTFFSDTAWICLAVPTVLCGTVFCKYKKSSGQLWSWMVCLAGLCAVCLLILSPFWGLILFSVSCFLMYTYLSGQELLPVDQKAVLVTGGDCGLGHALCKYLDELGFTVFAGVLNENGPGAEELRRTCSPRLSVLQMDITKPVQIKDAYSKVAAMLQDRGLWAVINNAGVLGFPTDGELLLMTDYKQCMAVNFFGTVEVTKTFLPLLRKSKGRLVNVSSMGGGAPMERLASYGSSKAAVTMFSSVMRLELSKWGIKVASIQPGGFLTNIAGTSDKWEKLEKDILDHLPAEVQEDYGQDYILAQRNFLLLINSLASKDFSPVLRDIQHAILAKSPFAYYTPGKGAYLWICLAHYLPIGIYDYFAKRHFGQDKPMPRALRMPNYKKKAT
Assay: Inhibition of human placental microsomal 17beta-HSD2 using [2,4,6,7-3H]-E2 as substrate after 20 mins in presence of NAD+ by RP-HPLC method

| IC50 [nM] | SMILES |
| --- | --- |
| 6.5 | Cc1cc(-c2ccc(C(=O)c3c(F)ccc(O)c3F)s2)cc(Cl)c1O |
| 7.2 | COc1c(C)cc(-c2ccc(C(=O)c3c(F)ccc(O)c3F)s2)cc1Cl |
